Source: patent US20220125748A1, “HISTONE ACETYLTRANSFERASE (HAT) REGULATORS AND USES THEREOF” (The Trustees of Columbia University in the City of New York, priority 2019, published 2022)

Protein sequences, listed by entry. Tags and fused reporters are not part of them.
UniProt Q09472, whole entry: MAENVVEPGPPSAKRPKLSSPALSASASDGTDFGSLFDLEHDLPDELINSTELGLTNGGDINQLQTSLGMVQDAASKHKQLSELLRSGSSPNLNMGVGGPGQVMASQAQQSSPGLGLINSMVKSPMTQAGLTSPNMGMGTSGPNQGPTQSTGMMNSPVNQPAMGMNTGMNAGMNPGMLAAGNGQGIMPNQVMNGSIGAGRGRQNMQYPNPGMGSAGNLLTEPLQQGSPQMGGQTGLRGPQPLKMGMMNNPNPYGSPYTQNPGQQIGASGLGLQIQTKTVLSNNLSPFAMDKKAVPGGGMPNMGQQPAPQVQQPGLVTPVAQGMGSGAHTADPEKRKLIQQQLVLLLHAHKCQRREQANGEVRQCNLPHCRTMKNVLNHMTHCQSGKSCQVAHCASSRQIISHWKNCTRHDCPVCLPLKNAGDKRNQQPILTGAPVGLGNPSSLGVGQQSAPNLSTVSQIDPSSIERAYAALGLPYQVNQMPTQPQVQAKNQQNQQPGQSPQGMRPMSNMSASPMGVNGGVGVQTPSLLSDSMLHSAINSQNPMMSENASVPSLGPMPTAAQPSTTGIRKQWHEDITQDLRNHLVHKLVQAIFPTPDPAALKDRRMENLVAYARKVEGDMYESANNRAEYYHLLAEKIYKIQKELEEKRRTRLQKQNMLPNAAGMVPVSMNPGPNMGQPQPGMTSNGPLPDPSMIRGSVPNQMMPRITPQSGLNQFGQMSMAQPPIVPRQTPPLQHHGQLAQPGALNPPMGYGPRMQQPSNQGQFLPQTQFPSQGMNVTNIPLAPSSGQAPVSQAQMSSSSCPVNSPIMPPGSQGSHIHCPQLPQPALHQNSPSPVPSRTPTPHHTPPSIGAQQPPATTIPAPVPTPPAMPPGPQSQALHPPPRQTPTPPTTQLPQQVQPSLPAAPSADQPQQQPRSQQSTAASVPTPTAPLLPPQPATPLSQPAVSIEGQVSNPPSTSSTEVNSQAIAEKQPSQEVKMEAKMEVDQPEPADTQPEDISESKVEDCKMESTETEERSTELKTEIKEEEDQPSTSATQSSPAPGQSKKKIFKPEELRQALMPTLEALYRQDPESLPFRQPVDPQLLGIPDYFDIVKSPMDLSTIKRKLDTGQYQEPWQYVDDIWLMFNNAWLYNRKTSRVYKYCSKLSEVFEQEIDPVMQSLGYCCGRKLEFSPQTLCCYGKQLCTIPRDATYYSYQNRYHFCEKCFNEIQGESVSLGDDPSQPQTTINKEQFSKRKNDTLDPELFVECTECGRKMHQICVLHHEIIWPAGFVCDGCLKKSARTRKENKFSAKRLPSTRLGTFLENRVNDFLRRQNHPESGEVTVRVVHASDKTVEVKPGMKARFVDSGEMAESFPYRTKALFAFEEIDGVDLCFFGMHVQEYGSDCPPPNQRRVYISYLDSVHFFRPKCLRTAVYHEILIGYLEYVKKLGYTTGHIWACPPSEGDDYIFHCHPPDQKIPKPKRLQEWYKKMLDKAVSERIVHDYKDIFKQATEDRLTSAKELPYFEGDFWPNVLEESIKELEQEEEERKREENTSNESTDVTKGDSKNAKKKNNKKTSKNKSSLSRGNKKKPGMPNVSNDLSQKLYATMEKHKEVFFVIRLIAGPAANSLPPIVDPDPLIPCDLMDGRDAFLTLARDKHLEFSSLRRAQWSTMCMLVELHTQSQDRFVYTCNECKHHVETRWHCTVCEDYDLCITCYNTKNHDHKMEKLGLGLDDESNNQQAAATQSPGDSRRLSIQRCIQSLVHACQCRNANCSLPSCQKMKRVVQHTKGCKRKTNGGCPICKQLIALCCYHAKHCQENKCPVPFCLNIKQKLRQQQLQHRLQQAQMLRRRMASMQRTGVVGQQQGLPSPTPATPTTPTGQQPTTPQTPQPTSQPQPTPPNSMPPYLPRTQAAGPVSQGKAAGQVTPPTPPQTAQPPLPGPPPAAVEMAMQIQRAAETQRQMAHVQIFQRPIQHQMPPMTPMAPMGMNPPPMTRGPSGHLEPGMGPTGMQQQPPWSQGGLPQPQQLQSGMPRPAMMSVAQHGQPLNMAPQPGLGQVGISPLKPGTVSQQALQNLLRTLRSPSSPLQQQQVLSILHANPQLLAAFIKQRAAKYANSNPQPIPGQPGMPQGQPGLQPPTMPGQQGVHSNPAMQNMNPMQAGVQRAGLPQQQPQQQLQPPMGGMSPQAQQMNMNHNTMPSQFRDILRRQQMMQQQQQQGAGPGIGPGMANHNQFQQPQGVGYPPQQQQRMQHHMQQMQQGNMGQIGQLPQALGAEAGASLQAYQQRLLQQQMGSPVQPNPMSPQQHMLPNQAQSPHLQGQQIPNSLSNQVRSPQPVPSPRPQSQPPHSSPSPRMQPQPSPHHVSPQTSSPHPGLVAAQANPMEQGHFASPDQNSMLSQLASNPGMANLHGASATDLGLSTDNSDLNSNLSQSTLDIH

Molecular target: p300 (Homo sapiens, UniProt Q09472)
Experiment: In vitro acetylation assay (p300, histone 3 Lys 18 / Lys 27, western blot)
Format: biochemical
Details: compound in DMSO, tested form: HCl

`CCOc1cccc(OCCN(C)C)c1C(=O)Nc1ncc(Cl)cn1` was tested, and the “H3-Lys 27 EC50” value (Lys 27 of histone 3, EC50 for activators) was “NO ACTIVITY”, the “H3-Lys 27 IC50” value (Lys 27 of histone 3, IC50 for inhibitors) was “NO ACTIVITY” and the EC50 (read-out: H3-Lys 18 EC50, Lys 18 of histone 3, EC50 for activators) was 97 nM.
